Results on 7 compounds are retold here after publication PMC9495348, “Polyfunctionalized α-Phenyl-tert-butyl(benzyl)nitrones: Multifunctional Antioxidants for Stroke Treatment” (Antioxidants, 2022).

Chains of the proteins cited; added tags and fusions are not shown. Residues count along the entry.
UniProt P06276, 29-602 limits assumed: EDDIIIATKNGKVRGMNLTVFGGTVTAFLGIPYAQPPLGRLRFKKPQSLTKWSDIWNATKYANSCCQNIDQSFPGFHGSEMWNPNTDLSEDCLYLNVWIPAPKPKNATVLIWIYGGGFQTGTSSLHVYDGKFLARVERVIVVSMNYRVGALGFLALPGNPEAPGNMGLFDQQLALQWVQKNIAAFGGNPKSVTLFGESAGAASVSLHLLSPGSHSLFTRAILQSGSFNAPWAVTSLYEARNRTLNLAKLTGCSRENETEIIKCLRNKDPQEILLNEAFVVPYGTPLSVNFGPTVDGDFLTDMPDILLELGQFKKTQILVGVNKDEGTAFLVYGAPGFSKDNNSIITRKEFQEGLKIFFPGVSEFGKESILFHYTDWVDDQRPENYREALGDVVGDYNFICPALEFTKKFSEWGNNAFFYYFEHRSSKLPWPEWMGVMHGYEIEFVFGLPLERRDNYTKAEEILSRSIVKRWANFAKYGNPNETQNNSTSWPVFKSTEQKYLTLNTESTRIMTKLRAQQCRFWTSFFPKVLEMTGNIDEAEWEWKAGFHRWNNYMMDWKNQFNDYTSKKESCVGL

Usually IC50 stands for the concentration that gives 50% inhibition.

For the assay, the target named is hBChE (Homo sapiens, UniProt P06276). Description: hBChE inhibition (DTNB, butyrylthiocholine). The assay is classed as biochemical. The note with it: read-out: hBChE IC50 ± SEM; mean ± SEM of three independent experiments; n.a. = not active (residual activity at 100 µM > 50%).
As for `C#CCN1CCN(CCCOc2ccccc2/C=[N+](\[O-])Cc2ccccc2)CC1`, the concentration for half-maximal inhibition (IC50) was 67.3 µM.
The value for `[O-]/[N+](=C\c1ccc(OCCCN2CCCCC2)cc1)Cc1ccccc1` [nitrone 1, (Z)-N-Benzyl-1-(4-(3-(piperidin-1-yl)propoxy)phenyl)methanimine oxide] was 45.8 µM; that for `[O-]/[N+](=C\c1cccc(OCCCN2CCCCC2)c1)Cc1ccccc1` [nitrone 3, (Z)-N-Benzyl-1-(3-(3-(piperidin-1-yl)propoxy)phenyl)methanimine oxide] was 16.4 µM.
For `CC(C)(C)/[N+]([O-])=C/c1cccc(OCCCN2CCCCC2)c1` [nitrone 4, (Z)-N-tert-Butyl-1-(3-(3-(piperidin-1-yl)propoxy)phenyl)methanimine oxide], the IC50 turned out to be 28.9 µM.
With `[O-]/[N+](=C\c1ccccc1OCCCN1CCCCC1)Cc1ccccc1` [nitrone 5, (Z)-N-Benzyl-1-(2-(3-(piperidin-1-yl)propoxy)phenyl)methanimine oxide], the IC50 was 3.46 µM.
As for `CC(C)(C)/[N+]([O-])=C/c1ccccc1OCCCN1CCCCC1` [nitrone 6, (Z)-N-tert-Butyl-1-(2-(3-(piperidin-1-yl)propoxy)phenyl)methanimine oxide], the IC50 was determined as 6.52 µM.
As for `C#CCN1CCN(CCCOc2cccc(/C=[N+](\[O-])C(C)(C)C)c2)CC1` [nitrone 10, (Z)-N-tert-Butyl-1-(3-(3-(4-(prop-2-yn-1-yl)piperazin-1-yl)propoxy)phenyl) methanimine oxide], the IC50 was found to be 51 µM.
